{
  "sequences": {"note": "Amino acid sequences for entries named in this document (tags omitted).", "UniProt P14416, whole entry": "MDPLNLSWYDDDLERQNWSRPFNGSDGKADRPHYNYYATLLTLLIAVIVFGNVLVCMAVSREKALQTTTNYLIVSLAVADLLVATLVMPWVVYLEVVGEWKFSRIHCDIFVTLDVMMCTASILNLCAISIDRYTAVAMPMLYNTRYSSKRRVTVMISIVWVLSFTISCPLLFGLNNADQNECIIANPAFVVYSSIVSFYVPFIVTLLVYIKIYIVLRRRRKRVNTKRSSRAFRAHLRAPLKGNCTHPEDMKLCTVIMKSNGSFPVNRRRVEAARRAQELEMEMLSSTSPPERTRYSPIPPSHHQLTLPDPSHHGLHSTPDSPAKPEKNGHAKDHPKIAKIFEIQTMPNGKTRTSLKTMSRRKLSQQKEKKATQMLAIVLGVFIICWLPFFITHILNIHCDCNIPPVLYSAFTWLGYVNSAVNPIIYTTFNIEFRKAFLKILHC"},
  "source": "ChEMBL document CHEMBL1255217",
  "about": "“Bioisosteric replacement leading to biologically active [2.2]paracyclophanes with altered binding profiles for aminergic G-protein-coupled receptors” (J Med Chem, 2010)",
  "key": {"D(2) dopamine receptor [1]": {"target": "T1, D(2) dopamine receptor (Homo sapiens, UniProt P14416)", "test": "Displacement of [3H]Spiperone from human dopamine D2 long receptor expressed in CHO cells", "format": "cell-based"}, "D(2) dopamine receptor [2]": {"target": "T1, D(2) dopamine receptor", "test": "Displacement of [3H]Spiperone from human dopamine D2 short receptor expressed in CHO cells", "format": "cell-based"}},
  "data": [
    {"smiles": "Cc1ccc(C)c(C(=O)CCCN2CCC(O)(c3cc(C)ccc3C)CC2)c1", "values": [
      {"measurement": "Ki", "setting": "D(2) dopamine receptor [1]", "result": 55, "unit": "nM"},
      {"measurement": "Ki", "setting": "D(2) dopamine receptor [2]", "result": 46, "unit": "nM"}
    ]}
  ]
}
